Legend:
Assay type in all cases: cell-based
[1] = system: bacteria on the surface of peach; test: Peach (lab dipped), total bacteria on surface; conditions: lab dipped 1 min, 30 ppm
[2] = system: fungi on the surface of peach; test: Peach (lab dipped), total fungi on surface; conditions: lab dipped 1 min, 30 ppm
[3] = system: bacteria on the surface of potato; test: Potato (Sanitizing Unit), total bacteria on surface; conditions: Sanitizing Unit dip 1 min, 30 ppm
[4] = system: fungi on the surface of potato; test: Potato (Sanitizing Unit), total fungi on surface; conditions: Sanitizing Unit dip 1 min, 30 ppm
[5] = system: bacteria on the surface of lettuce; test: Lettuce (Sanitizing Unit), total bacteria on surface; conditions: Sanitizing Unit dip 1 min, 30 ppm
[6] = system: fungi on the surface of lettuce; test: Lettuce (Sanitizing Unit), total fungi on surface; conditions: Sanitizing Unit dip 1 min, 30 ppm
[7] = system: bacteria on the surface of apple; test: Apple (Iodine Sanitization Unit), total bacteria on surface; conditions: Iodine Sanitization Unit dip 1 min, 30 ppm
[8] = system: fungi on the surface of apple; test: Apple (Iodine Sanitization Unit), total fungi on surface; conditions: Iodine Sanitization Unit dip 1 min, 30 ppm
[9] = system: bacteria on the surface of strawberry; test: Strawberry (Sanitization Unit), total bacteria on surface; conditions: Sanitization Unit dip 1 min, 30 ppm
[10] = system: fungi on the surface of strawberry; test: Strawberry (Sanitization Unit), total fungi on surface; conditions: Sanitization Unit dip 1 min, 30 ppm
[11] = system: bacteria on the surface of avocado; test: Avocado (Sanitization Unit), total bacteria on surface; conditions: Sanitization Unit dip 1 min, 30 ppm
[12] = system: fungi on the surface of avocado; test: Avocado (Sanitization Unit), total fungi on surface; conditions: Sanitization Unit dip 1 min, 30 ppm
[13] = system: bacteria on the surface of rockmelon; test: Rockmelon (Sanitization Unit), total bacteria on surface; conditions: Sanitization Unit dip 1 min, 30 ppm
[14] = system: fungi on the surface of rockmelon; test: Rockmelon (Sanitization Unit), total fungi on surface; conditions: Sanitization Unit dip 1 min, 30 ppm
[15] = system: bacteria on the surface of tomato; test: Tomato with dirt (Sanitization Unit), total bacteria on surface; conditions: iodine 20 ppm; for Bacterial population per cm^2 Log10 reduction: vs control
[16] = system: fungi on the surface of tomato; test: Tomato with dirt (Sanitization Unit), total fungi on surface; conditions: iodine 20 ppm; for Fungal population per cm^2 Log10 reduction: vs control
[17] = system: bacteria on the surface of apple; test: Apple with dirt (Sanitization Unit), total bacteria on surface; conditions: iodine set at 20 ppm, chlorine not recharged; for Bacterial population per cm^2 Log10 reduction: vs control
[18] = system: fungi on the surface of apple; test: Apple with dirt (Sanitization Unit), total fungi on surface; conditions: iodine set at 20 ppm, chlorine not recharged; for Fungal population per cm^2 Log10 reduction: vs control
[19] = dipped at 0 min (before dirt), chlorine 30 ppm
[20] = dipped at 0 min (before dirt), chlorine 30 ppm, listed as chlorine
[21] = dipped at 5 min, chlorine 30 ppm initial
[22] = dipped at 20 min, chlorine 30 ppm initial
[23] = dipped at 50 min, chlorine 30 ppm initial
[24] = dipped at 0 min (before dirt), listed as chlorine

Substance: chlorine
- Bacterial population per cm^2 Actual count [1]: 79 per cm^2
- Bacterial population per cm^2 Log10 count [1]: 0.85 log10 units
- Bacterial population per cm^2 Log10 reduction ([1]; vs undipped control): 2.46 de log10 units
- Fungal population per cm^2 Actual count [2]: 3.2 per cm^2
- Fungal population per cm^2 Log10 count [2]: 0.29 log10 units
- Fungal population per cm^2 Log10 reduction ([2]; vs undipped control): 1.97 d log10 units
- Bacterial population per cm^2 Actual count [3]: 378 per cm^2
- Bacterial population per cm^2 Log10 count [3]: 2.56 log10 units
- Bacterial population per cm^2 Log10 reduction ([3]; vs undipped control): 0.38 ab log10 units
- Fungal population per cm^2 Actual count [4]: 4 per cm^2
- Fungal population per cm^2 Log10 count [4]: 0.62 log10 units
- Bacterial population per cm^2 Actual count [5]: 14 per cm^2
- Bacterial population per cm^2 Log10 count [5]: 0.71 log10 units
- Bacterial population per cm^2 Log10 reduction ([5]; vs undipped control): 2.11 d log10 units
- Fungal population per cm^2 Actual count [6]: 0.44 per cm^2
- Fungal population per cm^2 Log10 count [6]: −0.35 log10 units
- Fungal population per cm^2 Log10 reduction ([6]; vs undipped control): 1.67 bc log10 units
- Bacterial population per cm^2 Actual count [7]: 4.0 per cm^2
- Bacterial population per cm^2 Log10 count [7]: 0.28 log10 units
- Bacterial population per cm^2 Log10 reduction ([7]; vs undipped control): 1.86 b log10 units
- Fungal population per cm^2 Actual count [8]: 1.8 per cm^2
- Fungal population per cm^2 Log10 count [8]: −0.13 log10 units
- Fungal population per cm^2 Log10 reduction ([8]; vs undipped control): 2.12 b log10 units
- Bacterial population per cm^2 Actual count [9]: 3710 per cm^2
- Bacterial population per cm^2 Log10 count [9]: 3.53 log10 units
- Bacterial population per cm^2 Log10 reduction ([9]; vs undipped control): 0.66 bcd log10 units
- Fungal population per cm^2 Actual count [10]: 519 per cm^2
- Fungal population per cm^2 Log10 count [10]: 2.62 log10 units
- Fungal population per cm^2 Log10 reduction ([10]; vs undipped control): 0.31 a log10 units
- Bacterial population per cm^2 Actual count [11]: 23 per cm^2
- Bacterial population per cm^2 Log10 count [11]: 1.22 log10 units
- Bacterial population per cm^2 Log10 reduction ([11]; vs undipped control): 1.70 d log10 units
- Fungal population per cm^2 Actual count [12]: 9.3 per cm^2
- Fungal population per cm^2 Log10 count [12]: 0.94 log10 units
- Fungal population per cm^2 Log10 reduction ([12]; vs undipped control): 1.11 bc log10 units
- Bacterial population per cm^2 Actual count [13]: 10,752 per cm^2
- Bacterial population per cm^2 Log10 count [13]: 4.03 log10 units
- Bacterial population per cm^2 Log10 reduction ([13]; vs undipped control): 1.06 bcd log10 units
- Fungal population per cm^2 Actual count [14]: 0.80 per cm^2
- Fungal population per cm^2 Log10 count [14]: −0.10 log10 units
- Fungal population per cm^2 Log10 reduction ([14]; vs undipped control): 2.95 e log10 units
- Bacterial population per cm^2 Actual count [15, 19]: 12 per cm^2
- Bacterial population per cm^2 Log10 count [15, 19]: 0.98 log10 units
- Bacterial population per cm^2 Log10 reduction [15, 19]: 1.03 defg log10 units
- Bacterial population per cm^2 Log10 reduction [15, 20]: about 1 log10 units
- Bacterial population per cm^2 Actual count [15, 21]: 15 per cm^2
- Bacterial population per cm^2 Log10 count [15, 21]: 1.17 log10 units
- Bacterial population per cm^2 Log10 reduction [15, 21]: 0.92 def log10 units
- Bacterial population per cm^2 Actual count [15, 22]: 23 per cm^2
- Bacterial population per cm^2 Log10 count [15, 22]: 1.38 log10 units
- Bacterial population per cm^2 Log10 reduction [15, 22]: 0.74 cd log10 units
- Bacterial population per cm^2 Actual count [15, 23]: 36 per cm^2
- Bacterial population per cm^2 Log10 count [15, 23]: 1.56 log10 units
- Bacterial population per cm^2 Log10 reduction [15, 23]: 0.46 bc log10 units
- Fungal population per cm^2 Actual count [16, 19]: 3 per cm^2
- Fungal population per cm^2 Log10 count [16, 19]: 0.23 log10 units
- Fungal population per cm^2 Log10 reduction [16, 19]: 1.34 fghi log10 units
- Fungal population per cm^2 Log10 reduction [16, 20]: about 1 log10 units
- Fungal population per cm^2 Actual count [16, 21]: 4.7 per cm^2
- Fungal population per cm^2 Log10 count [16, 21]: 0.62 log10 units
- Fungal population per cm^2 Log10 reduction [16, 21]: 0.94 def log10 units
- Fungal population per cm^2 Actual count [16, 22]: 9 per cm^2
- Fungal population per cm^2 Log10 count [16, 22]: 0.86 log10 units
- Fungal population per cm^2 Log10 reduction [16, 22]: 0.71 cd log10 units
- Fungal population per cm^2 Actual count [16, 23]: 25 per cm^2
- Fungal population per cm^2 Log10 count [16, 23]: 1.30 log10 units
- Fungal population per cm^2 Log10 reduction [16, 23]: 0.26 ab log10 units
- Bacterial population per cm^2 Actual count ([17]; dipped at 0 min (before dirt)): 3 per cm^2
- Bacterial population per cm^2 Log10 count ([17]; dipped at 0 min (before dirt)): 0.25 log10 units
- Bacterial population per cm^2 Log10 reduction ([17]; dipped at 0 min (before dirt)): 1.77 fg log10 units
- Bacterial population per cm^2 Log10 reduction [17, 24]: about 1.5 log10 units
- Bacterial population per cm^2 Actual count ([17]; dipped at 5 min): 26 per cm^2
- Bacterial population per cm^2 Log10 count ([17]; dipped at 5 min): 1.03 log10 units
- Bacterial population per cm^2 Log10 reduction ([17]; dipped at 5 min): 0.99 bcd log10 units
- Bacterial population per cm^2 Actual count ([17]; dipped at 20 min): 22 per cm^2
- Bacterial population per cm^2 Log10 count ([17]; dipped at 20 min): 1.07 log10 units
- Bacterial population per cm^2 Log10 reduction ([17]; dipped at 20 min): 0.94 bc log10 units
- Bacterial population per cm^2 Actual count ([17]; dipped at 50 min): 56 per cm^2
- Bacterial population per cm^2 Log10 count ([17]; dipped at 50 min): 1.69 log10 units
- Bacterial population per cm^2 Log10 reduction ([17]; dipped at 50 min): 0.33 a log10 units
- Fungal population per cm^2 Actual count ([18]; dipped at 0 min (before dirt)): 3 per cm^2
- Fungal population per cm^2 Log10 count ([18]; dipped at 0 min (before dirt)): 0.20 log10 units
- Fungal population per cm^2 Log10 reduction ([18]; dipped at 0 min (before dirt)): 1.53 defg log10 units
- Fungal population per cm^2 Log10 reduction [18, 24]: about 1.5 log10 units
- Fungal population per cm^2 Actual count ([18]; dipped at 5 min): 7 per cm^2
- Fungal population per cm^2 Log10 count ([18]; dipped at 5 min): 0.60 log10 units
- Fungal population per cm^2 Log10 reduction ([18]; dipped at 5 min): 1.14 cde log10 units
- Fungal population per cm^2 Actual count ([18]; dipped at 20 min): 6 per cm^2
- Fungal population per cm^2 Log10 count ([18]; dipped at 20 min): 0.67 log10 units
- Fungal population per cm^2 Log10 reduction ([18]; dipped at 20 min): 1.07 bcde log10 units
- Fungal population per cm^2 Actual count ([18]; dipped at 50 min): 19 per cm^2
- Fungal population per cm^2 Log10 count ([18]; dipped at 50 min): 1.22 log10 units
- Fungal population per cm^2 Log10 reduction ([18]; dipped at 50 min): 0.52 ab log10 units

From patent US7033509B2 (priority 2000, dated 2006)
